Consider one substance from patent publication US6767887B1, “Exendin analogues, processes for their preparation and medicaments containing them” (Roche Diagnostics GmbH, priority 1999, dated 2004).

Sequences of proteins named here, by UniProt entry; tags and fusion partners are left off. A change or cut given only in a name is not applied to a line headed by its entry.
UniProt P27487, whole entry: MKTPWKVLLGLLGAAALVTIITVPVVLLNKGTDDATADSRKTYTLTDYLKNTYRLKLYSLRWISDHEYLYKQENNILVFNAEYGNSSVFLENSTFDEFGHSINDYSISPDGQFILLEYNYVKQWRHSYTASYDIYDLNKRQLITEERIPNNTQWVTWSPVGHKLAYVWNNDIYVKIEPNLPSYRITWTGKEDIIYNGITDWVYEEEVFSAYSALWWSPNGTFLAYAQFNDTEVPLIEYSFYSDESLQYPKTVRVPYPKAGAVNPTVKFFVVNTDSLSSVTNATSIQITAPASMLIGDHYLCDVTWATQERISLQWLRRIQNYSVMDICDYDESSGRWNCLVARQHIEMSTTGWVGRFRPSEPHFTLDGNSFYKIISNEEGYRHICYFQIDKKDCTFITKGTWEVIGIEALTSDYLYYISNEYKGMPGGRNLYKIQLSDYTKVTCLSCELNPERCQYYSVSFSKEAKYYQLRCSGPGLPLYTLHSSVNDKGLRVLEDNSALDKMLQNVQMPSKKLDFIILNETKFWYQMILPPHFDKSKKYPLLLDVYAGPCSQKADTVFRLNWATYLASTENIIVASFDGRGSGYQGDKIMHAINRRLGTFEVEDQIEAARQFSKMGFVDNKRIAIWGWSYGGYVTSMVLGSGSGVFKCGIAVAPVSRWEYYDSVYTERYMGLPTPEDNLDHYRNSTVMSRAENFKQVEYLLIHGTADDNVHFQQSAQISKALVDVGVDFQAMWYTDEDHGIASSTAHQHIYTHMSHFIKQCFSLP
UniProt P08473: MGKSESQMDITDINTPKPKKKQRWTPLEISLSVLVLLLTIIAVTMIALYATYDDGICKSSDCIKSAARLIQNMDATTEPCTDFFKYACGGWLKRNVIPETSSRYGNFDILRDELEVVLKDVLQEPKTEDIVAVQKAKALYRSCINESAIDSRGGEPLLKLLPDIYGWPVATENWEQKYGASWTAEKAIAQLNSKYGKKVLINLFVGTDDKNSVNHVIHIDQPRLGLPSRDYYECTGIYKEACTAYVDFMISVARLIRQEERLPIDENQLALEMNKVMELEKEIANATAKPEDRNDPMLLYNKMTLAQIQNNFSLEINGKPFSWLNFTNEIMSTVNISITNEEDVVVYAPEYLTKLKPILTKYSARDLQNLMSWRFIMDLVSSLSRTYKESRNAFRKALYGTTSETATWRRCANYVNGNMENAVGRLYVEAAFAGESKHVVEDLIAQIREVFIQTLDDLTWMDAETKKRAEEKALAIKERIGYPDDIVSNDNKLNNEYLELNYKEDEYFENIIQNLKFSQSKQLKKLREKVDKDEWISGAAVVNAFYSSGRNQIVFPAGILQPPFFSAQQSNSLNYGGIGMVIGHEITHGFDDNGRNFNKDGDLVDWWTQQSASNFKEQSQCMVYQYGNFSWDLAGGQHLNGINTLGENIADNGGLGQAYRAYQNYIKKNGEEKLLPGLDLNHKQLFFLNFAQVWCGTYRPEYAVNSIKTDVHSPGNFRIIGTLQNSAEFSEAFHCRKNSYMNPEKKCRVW

The target in series [1] is dipeptidyl peptidase IV (DDP-IV) (Homo sapiens, UniProt P27487). The settings on record: at the time the incubation was ended.
Series [2] concerns brush border microvilli membranes (BBM). As to conditions: HEPES pH 7.4.
For series [3], the target named is T1, human neutral endopeptidase 24.11 (Homo sapiens, UniProt P08473).
T1 construct: purchased Genentech (San Francisco, USA)
The series can be described thus: Degradation by human neutral endopeptidase 24.11 (HPLC). It is filed as in vitro ADME. The settings on record: incubation with neutral endopeptidase 24.11, HEPES pH 7.4.

Consider “GLP-1-(7-36)-NH2 [GLP1-(7-36)-NH2, reference compound]”, for which, in series [1], the “Substrate for DDP-IV (proteolysis)” value is recorded as 50% proteolysis. The Degradation rate in series [2] worked out at 880.00 ng peptide/min/mg BBM; in series [3] it was 0.0586 mM/100 ng/ml NEP24.11/min.
